Measurements from PMC4399838, “Antipsychotic-Like Effect of the Muscarinic Acetylcholine Receptor Agonist BuTAC in Non-Human Primates” (PLoS ONE, 2015).

The chains behind the UniProt entries cited, without tags or fusion partners. Where a name states a change or a piece, a line headed by the entry shows the natural chain unless it says otherwise.
UniProt P08172, whole entry: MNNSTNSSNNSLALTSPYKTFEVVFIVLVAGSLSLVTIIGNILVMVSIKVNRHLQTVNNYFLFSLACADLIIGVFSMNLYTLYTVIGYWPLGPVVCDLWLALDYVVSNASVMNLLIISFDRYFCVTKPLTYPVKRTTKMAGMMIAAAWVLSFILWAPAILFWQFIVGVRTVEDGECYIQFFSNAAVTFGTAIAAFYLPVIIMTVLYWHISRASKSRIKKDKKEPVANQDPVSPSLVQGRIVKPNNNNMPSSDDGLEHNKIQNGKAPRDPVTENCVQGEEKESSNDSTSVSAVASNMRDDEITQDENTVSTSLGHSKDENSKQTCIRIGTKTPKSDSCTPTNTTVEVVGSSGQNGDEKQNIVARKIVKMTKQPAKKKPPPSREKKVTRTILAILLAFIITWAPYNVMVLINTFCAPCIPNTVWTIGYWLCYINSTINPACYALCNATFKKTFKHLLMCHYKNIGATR
UniProt P11229: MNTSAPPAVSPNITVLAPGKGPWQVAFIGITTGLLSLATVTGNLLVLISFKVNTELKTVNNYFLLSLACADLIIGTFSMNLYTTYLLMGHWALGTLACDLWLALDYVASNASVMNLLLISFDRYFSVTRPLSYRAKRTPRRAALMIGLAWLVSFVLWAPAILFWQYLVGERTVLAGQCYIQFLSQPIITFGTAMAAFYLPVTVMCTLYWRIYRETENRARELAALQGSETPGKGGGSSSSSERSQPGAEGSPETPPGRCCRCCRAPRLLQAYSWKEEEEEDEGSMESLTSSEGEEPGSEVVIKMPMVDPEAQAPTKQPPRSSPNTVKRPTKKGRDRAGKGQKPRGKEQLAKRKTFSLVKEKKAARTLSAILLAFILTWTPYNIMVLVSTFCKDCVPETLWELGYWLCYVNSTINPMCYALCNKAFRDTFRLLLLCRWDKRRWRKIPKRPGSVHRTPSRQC

What was measured:
[1] = target: T1, human M2 muscarinic receptor (Homo sapiens, UniProt P08172); experiment: GTP-γ-[35S] binding, antibody capture SPA (agonist and antagonist mode); format: biochemical
T1 construct: purchased PerkinElmer Life and Analytical Sciences, Boston, MA
Procedure: The antibody capture scintillation proximity technique previously described by DeLapp et al was used in a 96-well plate to determine GTP-γ-[35S] binding. One hundred μl (20–40 fmol/well) of membrane preparation from CHO cells that stably express the human M1-M5 muscarinic receptors (PerkinElmer Life and Analytical Sciences, Boston, MA) were incubated with varying concentration of test compound (final concentrations from 50pM to 1μM) for 30 min. One μM final concentration of GDP was added to M2 and M4 receptor membranes before incubation. […] (500 pM final concentration; Perkin Elmer Life and Analytical Sciences) was added to each well followed by 30 min of incubation. Then the labelled membranes were solubilized with 0.27% Nonidet P40 for 30 min where after they were incubated with 20 μl (final dilution of 1:400) of the appropriate rabbit polyclonal Gα antibody (Covance, Princeton, NJ) for 60 min. […] By use of a Wallac MicroBeta TriLux scintillation counter (PerkinElmer), the plates were centrifuged for 10 min at 700 × g and counted for 1 min per well. […] The data were analyzed by use of nonlinear regression for a sigmoidal concentration response curve (GraphPad Prism v. 4.0). […] The mean relative EC50, IC50, and %Emax, and pKi values were calculated as a mean of at least three independent experiments±SEM. […]

[2] = target: T2, human M1 muscarinic receptor (Homo sapiens, UniProt P11229); experiment: as above; format: biochemical
T2 construct: purchased PerkinElmer Life and Analytical Sciences, Boston, MA
Procedure: The antibody capture scintillation proximity technique previously described by DeLapp et al was used in a 96-well plate to determine GTP-γ-[35S] binding. One hundred μl (20–40 fmol/well) of membrane preparation from CHO cells that stably express the human M1-M5 muscarinic receptors (PerkinElmer Life and Analytical Sciences, Boston, MA) were incubated with varying concentration of test compound (final concentrations from 50pM to 1μM) for 30 min. One μM final concentration of GDP was added to M2 and M4 receptor membranes before incubation. […] (500 pM final concentration; Perkin Elmer Life and Analytical Sciences) was added to each well followed by 30 min of incubation. […] An anti-Gαq/11 antibody was used for the M1-, M3-, and M5 membranes, whereas an anti-Gαi-3 antibody was used for the M2- and M4 membranes (Eli Lilly and Company, Indianapolis, IN). […] By use of a Wallac MicroBeta TriLux scintillation counter (PerkinElmer), the plates were centrifuged for 10 min at 700 × g and counted for 1 min per well. The incubations took place at room temperature in GTP-binding assay buffer (20 mM Hepes, 100 mm NaCl, 5 mM MgC12, pH 7.4). The data were analyzed by use of nonlinear regression for a sigmoidal concentration response curve (GraphPad Prism v. 4.0). […] The mean relative EC50, IC50, and %Emax, and pKi values were calculated as a mean of at least three independent experiments±SEM. […]

[3] = target: M2AChR (Homo sapiens, UniProt P08172); experiment: Competitive radioligand binding; conditions: negative log-transformed

Work on `CCCCCCOc1nsnc1C1=CCCN(C)C1` [Xanomeline, xanomeline] yielded an EC50 ([1]; agonist mode, mean ± SEM of negative log-transformed values, read-out: Rel pEC50 (converted)) of 11.5 nM, an IC50 ([1]; antagonist mode against EC90 of agonist, negative log-transformed, read-out: Rel pIC50 (converted)) of 1.66 nM and an Emax [2] of 68.3 ± 5.31%. The “% Inhibition” value ([2]; antagonist mode, maximal inhibition of EC90 agonist response) was 15.2± 0.47% and the Ki [3] was 295 nM.
